Reference: paper PMC10983004 (Journal of Medicinal Chemistry, 2024)

What was measured:
TET1CD [1] = biological target: T1, TET1CD (Homo sapiens, UniProt Q8NFU7)
T1 sequence (Q8NFU7 1418-2136): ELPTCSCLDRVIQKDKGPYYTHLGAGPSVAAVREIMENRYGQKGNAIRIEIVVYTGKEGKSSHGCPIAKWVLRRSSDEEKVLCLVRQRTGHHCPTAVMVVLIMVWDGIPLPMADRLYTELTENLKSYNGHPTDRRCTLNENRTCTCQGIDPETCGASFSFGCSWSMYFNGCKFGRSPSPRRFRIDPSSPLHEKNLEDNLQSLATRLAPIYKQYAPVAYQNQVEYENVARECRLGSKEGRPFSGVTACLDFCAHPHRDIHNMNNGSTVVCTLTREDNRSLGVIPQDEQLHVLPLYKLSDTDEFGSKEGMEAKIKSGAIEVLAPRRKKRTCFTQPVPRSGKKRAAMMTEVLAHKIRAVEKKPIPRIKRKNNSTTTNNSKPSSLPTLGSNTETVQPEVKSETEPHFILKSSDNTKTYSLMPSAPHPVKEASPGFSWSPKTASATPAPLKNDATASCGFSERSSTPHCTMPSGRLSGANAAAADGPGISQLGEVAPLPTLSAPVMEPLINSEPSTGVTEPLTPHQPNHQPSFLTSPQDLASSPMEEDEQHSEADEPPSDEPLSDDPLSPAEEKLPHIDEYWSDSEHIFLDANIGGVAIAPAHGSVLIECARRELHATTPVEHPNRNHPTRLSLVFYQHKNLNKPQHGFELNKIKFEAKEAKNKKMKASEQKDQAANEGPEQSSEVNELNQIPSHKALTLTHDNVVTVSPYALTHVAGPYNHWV

TET1CD [2] = biological target: T1, TET1CD; assay type: biochemical; parameters: TET1CD (E1418-V2136), which was produced in insect (Sf9) cells, was from a commercial source; purchased Epigentek E12002-1; host or cells: Sf9; conditions: read-out: IC50 TET1CD (AlphaScreen)

CC(C)(C)OC(=O)c1ccc(-n2[nH]cc(-n3ccnn3)c2=O)nc1 [IOX4]
EC50 (TET1CD [1]): 79 µM | IC50 (TET1CD [2]): 17 µM
